According to PubChem BioAssay AID587 (National Center for Advancing Translational Sciences (NCATS), 2007):
This is a selection; strong and weak results do not stand in their true shares. Some of these compounds have results that are not shown, active ones among them. Records with an inconclusive call do not appear. Activity calls are given as the source filed them. Cut-off read from the data, not from the text of the source: active = max dye-equivalent concentration above about 10 nM; inconclusive = between about 1.1 nM and that limit; inactive = weaker than that.

assay: qHTS Assay for Spectroscopic Profiling in Texas Red Spectral Region; details: Compound fluorescence, Texas Red channel, 547/618 nm
From the text: NIH Molecular Libraries Screening Centers Network [MLSCN] NIH Chemical Genomics Center [NCGC] […] Occasionally, the artifactual effect may originate from the compound#s own spectral or other biophysical properties which generally tend to track its assay concentration. Pre-screening/profiling the library with respect to the compounds# spectral properties should help one exclude false positives early on. While the most informative fluorescent profiling data set is obtained by performing a full excitation and emission scan of each well by using a monochromator-based plate reader, such an approach is practical only on a very limited scale as scanning each well requires long time. An alternative approach, applied here, is to perform plate reader scans using selected excitation and emission wavelength pairs to generate a multidimensional relational database that correlates compound concentration and the respective relative fluorescence intensity at a given wavelength set. A standard curve of Texas Red (TR) present on each plate as six-point concentration series, was used to compute a normalized fluorescence response, termed dye-equivalent concentration, for each compound at each concentration.
NCGC Assay Protocol Summary: Buffer: 100 mM Tris buffer, pH 8.0 Dye standard plate: The wells in columns 1 through 4 of a Kalypsys polypropylene 1536-well compound plate were filled with standard solutions of fluorophore corresponding to the spectral region of interest. Solutions of TR were placed in the following wells: U1, V1: 3 mM, U2, V2: 300 uM, U3, V3: 30 uM, U4, V4: zero (DMSO), W1, X1: 3 uM, W2, X2: 900 nM, W3, X3: 300 nM, W4, X4: zero (DMSO). Assay Steps: Six uL of buffer were dispensed to 1536-well Greiner black plates. Compounds and dye standards (23 nL) were transferred via Kalypsys PinTool. The plates were incubated for 15 min at room temperature, and then read on ViewLux (Perkin-Elmer) High-throughput CCD imager using 547 nm and 618 nm excitation and emission filter set. Keywords: NIH Roadmap, MLSCN, MLI, MLSMR, qHTS, NCGC, Texas Red, Fluorescent Profiling.

Row | SMILES | outcome
1 | CN(C)c1cccc(C(=O)NCC2(N(C)C)CCCCC2)c1 | inactive
2 | C=C(C)C#C[C@@](O)(C(=O)OC1CCN(C)CC1)c1ccccc1 | inactive
3 | CN1CC[C@H](OC(=O)[C@](O)(c2ccccc2)C2CCCC2)C1 | inactive
4 | O=C(OC1CN2CCC1CC2)C(CO)(c1ccccc1)c1ccccc1 (stereo not given) | inactive
5 | CN1CCC[C@H](OC(=O)[C@](O)(c2ccccc2)C2CCCC2)C1 | inactive
